Chains of the proteins cited; added tags and fusions are not shown.
UniProt Q14524, whole entry: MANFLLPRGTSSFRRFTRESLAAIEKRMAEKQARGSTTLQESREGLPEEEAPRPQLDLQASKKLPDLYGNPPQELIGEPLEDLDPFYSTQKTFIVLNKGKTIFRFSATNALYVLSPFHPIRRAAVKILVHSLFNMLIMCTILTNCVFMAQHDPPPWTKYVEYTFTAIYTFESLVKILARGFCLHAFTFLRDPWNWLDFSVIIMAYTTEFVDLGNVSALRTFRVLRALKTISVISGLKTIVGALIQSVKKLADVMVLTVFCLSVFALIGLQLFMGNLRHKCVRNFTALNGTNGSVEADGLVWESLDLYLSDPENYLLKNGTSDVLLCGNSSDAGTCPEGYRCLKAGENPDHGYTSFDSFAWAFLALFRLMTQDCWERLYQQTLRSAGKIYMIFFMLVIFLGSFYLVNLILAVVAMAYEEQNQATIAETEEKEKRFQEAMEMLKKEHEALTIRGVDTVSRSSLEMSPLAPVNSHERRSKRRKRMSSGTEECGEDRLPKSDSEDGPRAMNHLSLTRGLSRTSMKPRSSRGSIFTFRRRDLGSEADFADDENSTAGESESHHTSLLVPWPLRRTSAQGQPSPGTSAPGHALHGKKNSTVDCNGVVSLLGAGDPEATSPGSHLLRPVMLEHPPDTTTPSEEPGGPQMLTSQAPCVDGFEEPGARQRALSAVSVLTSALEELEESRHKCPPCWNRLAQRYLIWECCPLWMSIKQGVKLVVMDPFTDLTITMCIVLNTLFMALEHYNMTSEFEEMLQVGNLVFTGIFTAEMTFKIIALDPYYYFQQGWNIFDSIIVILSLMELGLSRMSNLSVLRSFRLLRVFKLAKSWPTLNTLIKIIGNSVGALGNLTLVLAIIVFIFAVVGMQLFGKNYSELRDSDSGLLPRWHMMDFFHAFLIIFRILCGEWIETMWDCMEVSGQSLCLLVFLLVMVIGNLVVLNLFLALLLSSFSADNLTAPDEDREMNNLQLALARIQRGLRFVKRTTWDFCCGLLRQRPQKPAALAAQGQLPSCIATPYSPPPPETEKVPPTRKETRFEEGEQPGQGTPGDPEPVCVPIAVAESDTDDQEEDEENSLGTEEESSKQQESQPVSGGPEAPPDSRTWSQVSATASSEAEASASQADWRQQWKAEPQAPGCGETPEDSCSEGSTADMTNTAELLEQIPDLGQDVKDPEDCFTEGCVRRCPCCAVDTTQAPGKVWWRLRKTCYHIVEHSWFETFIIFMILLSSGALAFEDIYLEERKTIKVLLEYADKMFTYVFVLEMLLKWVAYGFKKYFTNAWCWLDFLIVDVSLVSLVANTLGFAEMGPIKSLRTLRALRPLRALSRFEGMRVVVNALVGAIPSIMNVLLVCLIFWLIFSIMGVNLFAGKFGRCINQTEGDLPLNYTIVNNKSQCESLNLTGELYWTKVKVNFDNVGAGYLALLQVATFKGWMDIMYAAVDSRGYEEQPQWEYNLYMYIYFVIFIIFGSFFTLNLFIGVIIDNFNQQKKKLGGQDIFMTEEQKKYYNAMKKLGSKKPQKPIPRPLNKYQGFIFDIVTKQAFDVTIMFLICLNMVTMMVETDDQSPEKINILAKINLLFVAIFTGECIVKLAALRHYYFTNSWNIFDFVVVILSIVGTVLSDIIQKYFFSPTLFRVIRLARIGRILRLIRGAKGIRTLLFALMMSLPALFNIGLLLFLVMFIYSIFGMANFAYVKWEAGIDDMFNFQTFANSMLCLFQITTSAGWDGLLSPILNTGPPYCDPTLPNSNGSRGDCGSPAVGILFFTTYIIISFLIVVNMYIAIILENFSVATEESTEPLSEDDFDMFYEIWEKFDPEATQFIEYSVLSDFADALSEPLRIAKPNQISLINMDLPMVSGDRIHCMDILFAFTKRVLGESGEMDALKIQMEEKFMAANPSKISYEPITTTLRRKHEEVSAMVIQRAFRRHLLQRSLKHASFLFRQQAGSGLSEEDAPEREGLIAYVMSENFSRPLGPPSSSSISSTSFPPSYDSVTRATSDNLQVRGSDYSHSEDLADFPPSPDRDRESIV
UniProt Q15858, whole entry: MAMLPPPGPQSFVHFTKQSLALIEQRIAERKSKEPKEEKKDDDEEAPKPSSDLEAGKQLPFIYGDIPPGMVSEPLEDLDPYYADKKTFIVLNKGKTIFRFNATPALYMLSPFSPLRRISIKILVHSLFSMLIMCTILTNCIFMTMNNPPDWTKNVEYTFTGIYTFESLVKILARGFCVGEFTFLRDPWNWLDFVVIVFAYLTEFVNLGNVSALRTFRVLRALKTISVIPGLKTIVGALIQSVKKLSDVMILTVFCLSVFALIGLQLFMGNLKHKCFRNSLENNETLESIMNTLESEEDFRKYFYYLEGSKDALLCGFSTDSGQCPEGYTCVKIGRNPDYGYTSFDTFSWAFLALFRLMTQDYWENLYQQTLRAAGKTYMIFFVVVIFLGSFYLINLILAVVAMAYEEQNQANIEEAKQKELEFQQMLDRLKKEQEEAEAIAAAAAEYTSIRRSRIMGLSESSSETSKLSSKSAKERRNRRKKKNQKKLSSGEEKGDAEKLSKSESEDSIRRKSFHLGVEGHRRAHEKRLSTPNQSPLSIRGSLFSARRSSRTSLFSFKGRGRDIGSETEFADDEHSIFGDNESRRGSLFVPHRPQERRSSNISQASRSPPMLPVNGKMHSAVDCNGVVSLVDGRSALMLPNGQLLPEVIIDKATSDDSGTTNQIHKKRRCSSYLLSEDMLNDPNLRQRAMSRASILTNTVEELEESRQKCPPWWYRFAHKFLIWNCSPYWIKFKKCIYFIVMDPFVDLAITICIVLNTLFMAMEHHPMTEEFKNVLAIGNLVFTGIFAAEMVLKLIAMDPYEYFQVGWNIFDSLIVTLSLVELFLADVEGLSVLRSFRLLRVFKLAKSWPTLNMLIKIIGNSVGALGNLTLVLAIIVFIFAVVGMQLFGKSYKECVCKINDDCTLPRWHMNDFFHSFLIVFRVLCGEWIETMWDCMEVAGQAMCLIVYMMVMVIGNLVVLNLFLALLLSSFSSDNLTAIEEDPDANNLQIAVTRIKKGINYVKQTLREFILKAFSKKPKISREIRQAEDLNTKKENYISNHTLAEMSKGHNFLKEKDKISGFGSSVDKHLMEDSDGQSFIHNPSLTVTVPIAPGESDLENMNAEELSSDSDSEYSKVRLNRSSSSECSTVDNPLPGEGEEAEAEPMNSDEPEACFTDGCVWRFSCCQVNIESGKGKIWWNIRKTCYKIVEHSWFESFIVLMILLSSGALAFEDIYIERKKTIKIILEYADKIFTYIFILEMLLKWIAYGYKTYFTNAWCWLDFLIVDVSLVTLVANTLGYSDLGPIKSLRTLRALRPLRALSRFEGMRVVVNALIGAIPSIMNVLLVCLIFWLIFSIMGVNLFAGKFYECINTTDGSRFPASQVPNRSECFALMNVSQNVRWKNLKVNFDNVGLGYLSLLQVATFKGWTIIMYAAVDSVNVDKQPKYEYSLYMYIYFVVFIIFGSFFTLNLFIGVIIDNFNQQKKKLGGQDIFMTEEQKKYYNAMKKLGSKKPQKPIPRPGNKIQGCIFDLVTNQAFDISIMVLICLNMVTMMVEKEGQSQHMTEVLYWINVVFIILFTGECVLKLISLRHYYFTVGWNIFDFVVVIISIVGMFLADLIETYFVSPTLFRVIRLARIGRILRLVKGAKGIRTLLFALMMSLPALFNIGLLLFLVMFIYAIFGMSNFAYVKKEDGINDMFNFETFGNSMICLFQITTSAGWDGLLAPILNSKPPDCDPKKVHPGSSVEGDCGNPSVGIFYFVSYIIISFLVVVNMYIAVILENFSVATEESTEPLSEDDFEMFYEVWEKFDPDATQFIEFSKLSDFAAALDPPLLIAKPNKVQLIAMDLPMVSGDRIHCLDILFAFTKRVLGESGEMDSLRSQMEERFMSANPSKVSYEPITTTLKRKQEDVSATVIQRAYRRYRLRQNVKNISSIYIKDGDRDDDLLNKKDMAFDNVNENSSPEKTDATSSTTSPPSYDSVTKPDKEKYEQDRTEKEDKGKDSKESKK

In patent US9012443B2 (Amgen Inc., priority 2011, dated 2015):

How the values were obtained:
Nav 1.5 = Nav 1.5 (Homo sapiens (Human), UniProt Q14524); assay: Nav 1.5 in vitro PX assay (PatchXpress whole cell voltage clamp); assay type: cell-based; conditions: 293 cells stably transfected with Nav 1.5; first part of table
Experimental: Nav 1.5 In Vitro PX Assay
293 cells stably transfected with Nav 1.5 were recorded in whole cell voltage clamp mode with the PatchXpress automated electrophysiology system according the manufacturer's specifications (Molecular Devices, LLC, Sunnyvale, Calif.). Cells were held at a holding potential of −50 mV to inactivate sodium channels. To elicit sodium currents the voltage was changed to −120 mV to recover a portion of the channels, followed by delivery of test pulses of 20 msec duration to 0 mV, at 0.1 Hz. A single concentration of test compound was applied to cells for a duration of 5 minutes. Peak sodium current was measured at the end of the compound addition period to determine percent inhibition. A minimum of two cells were tested per concentration. IC50 curves were fitted to percent inhibition as a function of concentration.

Nav 1.7 = Nav 1.7 (Homo sapiens (Human), UniProt Q15858); assay: Nav 1.7 IWQ in vitro assay (IonWorks Quattro population patch-clamp); assay type: cell-based; conditions: 293 cells stably transfected with Nav 1.7; first part of table
Experimental: Nav 1.7 or Nav 1.5 IWQ In Vitro Assay
293 Cells stably transfected with either Nav 1.7 or Nav 1.5 were recorded in population patch-clamp mode with the IonWorks® Quattro automated electrophysiology system in accordance with the manufacturer's specifications (Molecular Devices, LLC, Sunnyvale, Calif.). Sodium channel currents were measured in response to a train of depolarizations that induced successively greater inactivation.
Cells were then left unclamped for a period of 3 to 8 minutes while a single concentration of test compound was added. Cells were then reclamped and put through the same voltage protocol. Current at the end of the 26th pulse to −20 mV was subtracted from the peak current evoked by the 26th pulse to −20 mV to correct for leak current. Percent block was calculated for each concentration in duplicate, and IC50 curves were fitted to percent block as a function of concentration.

IC50 (Nav 1.7) [nM]	Structure (SMILES)	IC50 (Nav 1.5) [nM]	IC50 at 5 min (Nav 1.5) [nM]
490	O=S(=O)(Nc1ncns1)c1ccc2c(-c3ccc(C(F)(F)F)cc3O)cccc2c1 [Example 38]	23100	
30	Cn1nccc1-c1cc(C(F)(F)F)ccc1-c1cccc2cc(S(=O)(=O)Nc3ncns3)ccc12 [Example 1]		> 30000
